Test results reported in ChEMBL document CHEMBL6103626, “Structure-Based Design of New LSD1/EGFRL858R/T790M Dual Inhibitors for Treating EGFR Mutant NSCLC Cancers” (J Med Chem, 2025).

Experiment: Selectivity index, ratio of IC50 for inhibition of wild-type EGFR (unknown origin) using Glu/Tyr as substrate to IC50 for inhibition of EGFR L858R/T790M mutant (unknown origin) using Glu/Tyr as substrate
Details: tested as the 2H-labelled form

Ratio IC50: 116
SMILES: C=CC(=O)Nc1cc(Nc2nccc(-c3cn(C)c4ccccc34)n2)c(OC)cc1N1CCC(C)(N)CC1
